Values quoted from earlier work in patent US9540379B2 (priority 2011, dated 2017).

What was measured:
rats [1] = conditions: rat, in vivo; cited from earlier work
rats [2] = conditions: rat, in vivo; cited from earlier work; remark: listed apart in the source

In the case of COc1ccc(Cc2nccc3cc(OC)c(OC)cc23)cc1OC [papaverine], the “effect on attentional set-shifting deficits” value (rats [1]) is given as “reverses attentional set-shifting deficits” and the “effect on cognitive deficits” value (rats [2]) is given as “positive effect”.
